Assay results reported in article PMC3257251, “A Whole Cell Assay to Measure Caspase-6 Activity by Detecting Cleavage of Lamin A/C” (PLoS ONE, 2012).
Read-outs that look alike come from different tables or passages of the source.

Key:
Caspase-3 = target: T1, Caspase-3 (Homo sapiens, UniProt P42574); assay: Enzymatic caspase activity assay, (Ac-DEVD)2-Rh110 substrate; assay type: biochemical; settings: apparent IC50; 15 minute preincubation and 40 minute reaction; 300 pM caspase-3, 1 µM (Ac-DEVD)2-Rh110
T1 construct: made in house; host or cells: E. coli
T1 sequence (P42574 29-175 limits assumed): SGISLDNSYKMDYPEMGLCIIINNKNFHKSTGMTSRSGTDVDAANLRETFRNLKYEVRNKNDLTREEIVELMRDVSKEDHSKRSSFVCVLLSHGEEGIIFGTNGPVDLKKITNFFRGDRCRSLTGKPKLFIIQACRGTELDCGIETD
T1 sequence (P42574 176-277 limits assumed): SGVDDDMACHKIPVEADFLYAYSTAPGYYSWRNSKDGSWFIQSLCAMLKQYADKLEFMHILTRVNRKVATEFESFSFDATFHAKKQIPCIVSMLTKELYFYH

[1] = target: T2, caspase-6 cleavage of lamin A/C in SKNAS cells (Homo sapiens, UniProt P55212); assay: Cell-based ELISA for cleaved lamin A/C (cellular lamin cleavage assay); settings: inhibitor 30 min before 3 µM staurosporine for 6 hours, small lamin A/C cleavage product
T2 construct: monitors cellular caspase-6 cleavage of endogenous lamin A/C under apoptotic conditions; endogenous in cells; host or cells: SKNAS (ATCC #CRL-2137)
T2 sequence (P55212 24-179 limits assumed): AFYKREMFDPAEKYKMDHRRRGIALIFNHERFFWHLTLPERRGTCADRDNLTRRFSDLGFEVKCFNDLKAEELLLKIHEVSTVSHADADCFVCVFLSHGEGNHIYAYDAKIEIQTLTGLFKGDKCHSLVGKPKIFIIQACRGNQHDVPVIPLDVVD
T2 sequence (P55212 194-293 limits assumed): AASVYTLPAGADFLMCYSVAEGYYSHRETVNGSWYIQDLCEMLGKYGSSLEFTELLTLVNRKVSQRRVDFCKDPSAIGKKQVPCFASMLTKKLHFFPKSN
Experimental: The following day, cell culture medium was aspirated and replaced with 20 µl/well basal medium (DMEM with no supplements added). […] 5 µl of diluted inhibitor was delivered to each well and incubated for 30 minutes in a cell culture incubator prior to addition of 5 µl/well staurosporine in basal medium. The final DMSO concentration in the assay was 0.1% and the final staurosporine concentration was 3 µM (or indicated concentration). […] Cells were permeabilized by the addition of 50 µl 0.2% Triton X-100 in PBS for 15 minutes at room temperature. […] The following day, primary antibody was aspirated and the wells washed 3 times with 100 µl TBST. Secondary antibody (donkey anti-rabbit IgG, HRP-conjugated (GE Healthcare #NA934V)) was delivered at 1∶2500 dilution in blocking agent (20 µl/well) and incubated 1 hour at room temperature.
In order to develop an assay more amenable to inhibitor screening, this antibody detection was adapted to a plate-based non-denaturing assay. […] Binding of the two antibodies that recognize neo-epitopes on the large or small lamin degradation products was detected by horseradish-peroxidase-labeled secondary antibody and subsequent chemiluminescent substrate addition (see methods for details).

Caspase-6 = target: T3, Caspase-6 (Homo sapiens, UniProt P55212); assay: Enzymatic caspase activity assay, (Ac-VEID)2-Rh110 substrate; settings: 15 minute enzyme/inhibitor preincubation and 40 minute enzyme reaction
T3 sequence (P55212 24-179 limits assumed): T2 sequence (P55212 24-179 limits assumed)
T3 sequence (P55212 194-293 limits assumed): T2 sequence (P55212 194-293 limits assumed)

SMILES | IC50 (Caspase-3) | IC50 [1] | IC50 (Caspase-6; read-out: Enzymatic Caspase-6 IC50) | IC50 (Caspase-6; read-out: Mean IC50 Caspase-6, apparent IC50, 1 nM caspase-6, 5 µM (Ac-VEID)2-Rh110)
CC(=O)N[C@@H](CC(=O)O)C(=O)N[C@@H](CCC(=O)O)C(=O)N[C@H](C(=O)N[C@H](C=O)CC(=O)O)C(C)C [Ac-DEVD-CHO] | 1.3 nM | – | – | –
CC[C@H](C)[C@H](NC(=O)[C@H](CCC(=O)O)NC(=O)[C@@H](NC(C)=O)C(C)C)C(=O)N[C@H](C=O)CC(=O)O [Ac-VEID-CHO] | – | > 100000 nM | 16 nM | 16.2 nM
